# Source: PubChem BioAssay AID504810 (National Center for Advancing Translational Sciences (NCATS), 2011)
# Protein sequences, listed by entry. Tags and fused reporters are not part of them.
# UniProt P16473, whole entry: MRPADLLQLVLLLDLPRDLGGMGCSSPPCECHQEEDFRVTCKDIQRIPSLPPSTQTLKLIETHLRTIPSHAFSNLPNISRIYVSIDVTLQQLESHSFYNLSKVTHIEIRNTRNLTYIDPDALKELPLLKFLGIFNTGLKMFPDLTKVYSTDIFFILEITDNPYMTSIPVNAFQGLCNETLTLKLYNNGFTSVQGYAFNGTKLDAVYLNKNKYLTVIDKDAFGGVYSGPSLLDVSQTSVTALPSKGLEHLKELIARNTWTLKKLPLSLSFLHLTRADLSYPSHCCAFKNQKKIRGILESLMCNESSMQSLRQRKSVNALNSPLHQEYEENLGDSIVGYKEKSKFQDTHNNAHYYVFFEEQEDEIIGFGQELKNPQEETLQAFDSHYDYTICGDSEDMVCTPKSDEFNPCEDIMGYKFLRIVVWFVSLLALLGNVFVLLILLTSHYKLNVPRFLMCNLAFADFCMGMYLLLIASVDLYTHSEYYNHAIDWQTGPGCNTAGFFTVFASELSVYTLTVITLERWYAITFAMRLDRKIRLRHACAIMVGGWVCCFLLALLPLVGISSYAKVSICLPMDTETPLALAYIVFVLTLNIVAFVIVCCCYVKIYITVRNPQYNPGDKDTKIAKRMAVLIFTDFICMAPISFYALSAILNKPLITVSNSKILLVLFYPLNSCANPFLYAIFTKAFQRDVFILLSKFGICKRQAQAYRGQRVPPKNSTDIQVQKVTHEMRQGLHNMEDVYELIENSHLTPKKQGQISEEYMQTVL
# The list shows a part of the results, in another mix than the full data. The source made the active and inactive calls.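 The calls were made as follows: active = activity change below a set negative limit, meaning inhibition stronger than a set level (cut at about -70% in these data); inconclusive = activity change between two set negative limits; inactive = the rest.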
# Target: Thyrotropin receptor (Homo sapiens) (UniProt P16473)
# Assay: Antagonists of the Thyroid Stimulating Hormone Receptor: HTS campaign
# Conditions: TSHR-expressing cells, TSH-stimulated cAMP HTRF, 2 h; at 11.5 µM; hits give low values
# Excerpt: The thyroid-stimulating hormone receptor (TSHR) is a member of the 7 trans-membrane-spanning receptor (7TMR) family of cell surface receptors. TSHR-mediated hyperthyroidism is important in thyroid pathology. The development of small molecule antagonists of TSHR may lead to therapeutic approaches for TSHR-mediated hyperthyroidism caused by constitutively activating mutations or stimulating auto-antibodies associated with Graves' disease. Graves' disease is the leading cause of hyperthyroidism and is caused by autoantibodies that stimulate TSHR (TsAbs) causing thyroid growth and unregulated overproduction of thyroid hormones and existing treatments have liabilities (agranulocytosis). In addition, TSHRs are known to be expressed in multiple extrathyroidal tissues including bone, brain, kidney, testis, fat and cells of the immune system but the role of the TSHR in these tissues is not clear. Therefore, TSHR antagonists/inverse agonists could be used as probes of extrathyroidal TSHR function. Finally, TSHR inverse agonists, which are a subclass of antagonists that inhibit agonist-independent (or basal or constitutive) TSHR signaling, could be used to inhibit TSH-independent signaling in patients with recurrent or metastatic thyroid cancer who are receiving thyroid hormone to suppress TSH. In collaboration between scientist from the NCGC and the NIDDK, a miniaturized HTRF high-throughput screen was developed. It's a cell based assay, where an anti cAMP antibody contains a fluorescent cryptate tag (excitation 337 nm; emission 620 nm) and the acceptor is cAMP-d2 (excitation 620 nm; emission 665 nm). When antibody and cAMP-d2 interact and are excited by a 337 nm light, a FRET occurs resulting in emission at 665 nm. The assay is competition between cAMP-d2 and cAMP (from the cell lysate). The homogeneous protocol allows for one step dispense after stimulation that is automation friendly. NIH Chemical Genomics Center [NCGC] NIH Molecular Libraries Probe Centers Network [MLPCN] […]
# 1. […] The result is obtained by using a ViewLux read-out with HTRF settings.
# % is scaled to controls: 0 for no effect and ±100 for the full control effect.
row,Compound,"activity change, negative = inhibition"
1,CCC(=O)N(c1ccccc1)C1CCN(CCc2ccccc2)CC1,inactive: -6.67%
2,CCC(=O)N(c1ccccc1)C1(COC)CCN(CCc2cccs2)CC1,inactive: 24%
3,CCC(=O)N(c1ccccc1)C1(COC)CCN(CCn2nnn(CC)c2=O)CC1,inactive: 1.44%
